This is a selection; strong and weak results do not stand in their true shares. Calls of active or inactive are those of the source.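 Rule for the calls: active = activation, scaled between plate controls, above about 75% (limit read from the data); inactive = activation under that limit.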
Assay: inhibitors of zVAD-triggered necroptosis, primary screen, L929 cells (AID 1377);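 note: 0% = zVAD with DMSO and 100% = DMSO alone without zVAD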
Details: ATP luminescence, 24 h, at 10 µM, active compounds read high; with zVAD 60 µM unless noted

SMILES	viability rescue
CN(C)c1cccc(C(=O)NCC2(N3CCCCC3)CCCCC2)c1	inactive: -0.000562%
COc1ccc(CN(CCCl)CCCl)cc1Cl	inactive: 0.03%
CC(C)c1ccc(NC2CCN(C(=O)OC(C)(C)C)CC2)cc1	inactive: 5.9%
CN1CCC(Nc2cccc(F)c2)CC1	inactive: 0.37% [with zVAD 20 µM]
O=C(NCC1(N2CCCCC2)CCCCC1)c1cccc([N+](=O)[O-])c1	inactive: -0.03%
N#CC1(Nc2ccccc2)CCN(CCc2ccccc2)CC1	inactive: 0.53% [with zVAD 20 µM]
CN1CCN(CCOC(=O)C(O)(c2ccccc2)c2ccccc2)CC1	inactive: 0.44%
COc1ccc(NC2CCN(C(=O)OC(C)(C)C)CC2)cc1	inactive: -0.82%
O=C(NCC1(N2CCOCC2)CCCCC1)c1cc(=O)[nH]c2ccccc12	inactive: 0.08%
COc1ccc(NC2CCN(CCc3ccccc3)CC2)c(OC)c1	inactive: 1.68% [with zVAD 20 µM]
CCOc1ccc(C)cc1CN(CCCl)CCCl	inactive: 1%
Cc1ccc(OCC(C)C)c(CN(CCCl)CCCl)c1	inactive: -0.7%
COc1ccc(C(=O)NCC2(N3CCCCC3)CCCCC2)c(OC)c1OC	inactive: -0.18%
CCOC(=O)N1CCC(Nc2ccc(OC)cc2)CC1	inactive: 1.73%
O=C(OC1CN2CCC1CC2)C1c2ccccc2Oc2ccccc21 (stereo not drawn)	inactive: -0.93% [with zVAD 20 µM]
N#CC1(Nc2ccccc2)CCN(Cc2ccccc2)CC1	inactive: -0.02%
O=C(NCC1(N2CCOCC2)CCCCC1)c1cc2ccccc2o1	inactive: 1.7%
CC(C)(C)OC(=O)N1CCC(Nc2ccccc2)CC1	inactive: 2.8%
CCOc1ncccc1C(=O)NCC1(N2CCOCC2)CCCCC1	inactive: 0.67% [with zVAD 20 µM]
CCCOc1ccc(C)cc1CN(CCCl)CCCl	inactive: -0.23%
CCC(CO)(C(=O)OC1CN2CCC1CC2)c1ccccc1 (stereo not drawn)	inactive: 0.06% [with zVAD 20 µM]
COc1cc(OC)cc(C(=O)NCC2(N3CCOCC3)CCCCC2)c1	inactive: 1.41%
CN(C)c1ccc(C(=O)NCC2(N3CCCCC3)CCCCC2)cc1	inactive: -0.46%
N#Cc1ccc(C(=O)NCC2(N3CCCCC3)CCCCC2)cc1	inactive: -0.57%
c1ccc(CN2CCC(Nc3ccccc3)CC2)cc1	inactive: -1.12%
COc1ccc(C(=O)NCC2(N3CCOCC3)CCCCC2)cc1OC	inactive: 10.4%
O=C(OC1CN2CCC1CC2)C1c2ccccc2C=Cc2ccccc21 (stereo not drawn)	inactive: -0.02%
N/C(=N\O)c1c(N)no[n+]1[O-]	inactive: -0.07% [with zVAD 20 µM]

— PubChem BioAssay AID1377 (University of Pittsburgh Molecular Library Screening Center, 2008)
